AlphaSeq binding of Ab-95 light chain variants to a spike HR2 peptide

The measurements come from Engelhart et al. 2022 (doi:10.1038/s41597-022-01779-4) through the FLAb antibody collection.

Antigen: PDVDLGDISGINAS, a 14-residue peptide of the SARS-CoV-2 spike HR2 region.

Ab-95 is the parent antibody, in scFv form: VH, then a (GGGGS)3 linker, then VL. The heavy chain is unchanged in all variants.
VH: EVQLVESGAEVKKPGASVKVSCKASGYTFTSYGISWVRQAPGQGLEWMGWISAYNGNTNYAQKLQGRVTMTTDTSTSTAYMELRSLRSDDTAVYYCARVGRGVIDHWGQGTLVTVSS
VL: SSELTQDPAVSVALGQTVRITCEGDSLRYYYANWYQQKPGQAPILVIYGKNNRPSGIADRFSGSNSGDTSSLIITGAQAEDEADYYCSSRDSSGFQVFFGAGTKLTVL

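The parent was found by panning a naive human phage display library on the peptide. Variants in AAYL52 differ from the parent at up to three CDR positions; double and triple changes were sampled at random. The scFvs were displayed on barcoded MATa yeast, the peptide on MATalpha yeast. Mating (16 h, 30 °C) was followed by selection of diploids and sequencing of their barcodes. The ratio of observed to expected reads was calibrated, replicate by replicate, on BCL2-family standards whose Kd was known from biolayer interferometry. Mating was done three times.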

Each variant is given by its three light chain CDRs, as the data file delimits them; those of the parent are EGDSLRYYYAN, GKNNRPS, SSRDSSGFQVF. This list gathers variants with a substitution at R90 (VL, numbered from residue 1). Each Kd is an estimate from the mating assay, the geometric mean of the replicates in which the pair was seen; lower is stronger. An entry "nd" has no value in the source: the pair was not observed among the diploids in any replicate. This suggests poor binding but is not conclusive. Background: pairings of library AAYL52 with three empty control strains gave a value in 28% of cases (median 8.2 µM, 5th percentile 800 nM). Values in that range, when seen in few replicates, are hard to tell from nonspecific mating. Also given: how often the same scFv was detected with the empty control strains.

Variant EGDSLRYYYAN / GKNNRPN / SSMDSRGFQVF showed 18 µM (3 of 3 replicates; controls 3 of 9). Variant EGDSLRYYYAN / YKNNRPS / SSPDSSGFQVF showed 39 µM (2 of 3 replicates; controls 2 of 9). For EGDSLRYYPAN / GKNNRPS / SSVDSSLFQVF, the assay gave nd (0 of 3 replicates; controls 4 of 9). Variant EGDSLRYYYAN / TKNNRPS / SSTDSWGFQVF gave 7.8 µM (1 of 3 replicates; controls 0 of 9). Variant EGDSLRYYYAN / GKNNRPS / SSIDTPGFQVF showed 160 µM (2 of 3 replicates; controls 3 of 9). Variant EGDSLRYYYAN / GKNNWPL / SSYDSSGFQVF gave 34 µM (2 of 3 replicates; controls 2 of 9).

Variant EGISLRYYYAN / HKNNRPS / SSWDSSGFQVF gave 8.8 µM (3 of 3 replicates; controls 2 of 9). With EGDSYRYYYAN / GKNNRPS / SSFDSSGFQVA the result was 26 µM (1 of 3 replicates; controls 3 of 9). With EGWSLRYYYAN / GKNNRPS / SSPDTSGFQVF the result was 2.5 µM (3 of 3 replicates; controls 4 of 9).